Read-outs that look alike come from different tables or passages of the source.
System: EBC-1 cells
Experiment: EBC-1 cell proliferation experiment (CellTiter-Glo)
Settings: read-out: EBC-1 cell proliferation activity IC50, 3 days
Experimental: MEM medium, fetal bovine serum, penicillin/streptomycin antibiotics were purchased from Wisent. EBC-1 cell line was purchased from Nanjing COBIO Bioscience Co., LTD. Envision multi-label analyzer (PerkinElmer).
EBC-1 cells were seeded in a white 96-well plate, […] cell suspension per well, which contained 3000 EBC-1 cells. The cell plate was placed in a carbon dioxide incubator for overnight culture.
The compound to be tested was diluted 5-fold to the eighth concentration with a discharge gun, i.e., from 2 mM to […], and double duplicate wells experiment was set. 78 μL of the medium was added to the middle plate, then 2 μL per well of gradient diluted compound was transferred to the corresponding position on the middle plate, then mixed well and 20 μL per well was transferred to the cell plate. The cell plate was cultured in a carbon dioxide incubator for 3 days. Another cell plate was prepared and the signal values were read on the day of dosing as […] to be used in the data analysis. 25 μL of Promega CellTiter-Glo was added to each well of this cell plate, and incubated at room temperature for 10 minutes to stabilize the luminescence signal. Readings were taken using a PerkinElmer Envision multi-label analyzer.
25 μL of Promega CellTiter-Glo reagent was added to each well of this cell plate, and incubated at room temperature for 10 minutes to stabilize the luminescence signal. Readings were taken using a PerkinElmer Envision multi-label analyzer.
Using the equation (Sample-Min)/(Max-Min)*100% to convert the original data to the inhibition rate, the IC50 value can be obtained by curve fitting with four parameters (obtained by “log(inhibitor) vs. response in GraphPad Prism—Variable slope mode).

**Q.** What does the source list for `CC(c1cccc(-c2ncc(OCC3CCN(C)CC3)cn2)c1)n1c(=O)ccn2c3cc(C#N)ccc3nc12` (single isomer, unassigned)?
**A.** IC50: 74 nM; IC50 (tested form: HCl): 10.9 nM

**Q.** `CC(c1cccc(-c2ncc(OCC3CCN(C)CC3)cn2)c1)n1c2c(ccc1=O)-c1cc(C#N)ccc1C2=O` (single isomer, unassigned) was tested. Which IC50 (tested form: HCl) did it give?
**A.** 14 nM

Source: patent US12122780B2, “Pyrimidinyl group-containing tricyclic compound serving as c-Met inhibitor” (JIANGSU AOSAIKANG PHARMACEUTICAL CO., LTD., priority 2019, dated 2024)
